According to paper PMC12667295, “A surrogate barrier model for high-throughput blood-brain barrier permeability prediction: integrating LLC-PK1-MOCK/MDR1 Cells and lysosomal trapping correction” (Drug Delivery, 2025):

Experiments:
P-gp (human MDR1) = test: in vitro; conditions: pig, LLC-PK1, pH 7.4;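 also: 2 h incubation at 37 °C, receiver HBSS with 10 mM Hepes plus 1% BSA, LC-MS/MS of donor and receiver, recovery as receiver plus donor amount over initial donor amount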
in vitro = conditions: pig, LLC-PK1 MOCK cell monolayer (Transwell), pH 7.4

Compound	recovery at 2 h, 2 µM (P-gp (human MDR1)) [%]	recovery at 2 h, 2 µM (in vitro) [%]
CC(NC(C)(C)C)C(=O)c1cccc(Cl)c1 (stereo not shown) [Bupropion]	104 ± 7.38	102 ± 4.17
CCOc1ccc(NC(C)=O)cc1 [Phenacetin]	119 ± 1.31	118 ± 2.92
